Patent publication US20080125475A1 (priority 2006, published 2008)

Protein sequences, listed by entry. Tags and fused reporters are not part of them.
UniProt P35372, whole entry: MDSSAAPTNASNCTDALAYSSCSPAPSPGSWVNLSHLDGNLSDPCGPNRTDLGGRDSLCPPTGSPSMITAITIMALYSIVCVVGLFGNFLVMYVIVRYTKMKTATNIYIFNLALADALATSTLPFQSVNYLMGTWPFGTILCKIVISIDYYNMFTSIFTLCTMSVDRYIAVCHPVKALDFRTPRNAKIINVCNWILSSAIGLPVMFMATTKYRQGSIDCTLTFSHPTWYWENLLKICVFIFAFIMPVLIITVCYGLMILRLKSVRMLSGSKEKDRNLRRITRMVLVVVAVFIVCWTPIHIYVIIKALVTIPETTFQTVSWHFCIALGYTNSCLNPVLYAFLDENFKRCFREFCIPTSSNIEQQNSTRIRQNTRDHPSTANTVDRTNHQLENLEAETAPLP

Tests used:
human μ-opiate receptor = human μ-opiate receptor (Homo sapiens, UniProt P35372); experiment: μ binding, [3H]-naloxone displacement, CHO-K1 membrane preparation; conditions: read-out: Ki (μ-OR)
Sprague-Dawley rats [1] = experiment: Chung model: mononeuropathic pain after spinal nerve ligature; format: in vivo, rat; conditions: for ED50 chronic: rat; for ED50 chronic / Enhancement of action factor: i.v.; for analgesic action after antagonization with naloxone or B11: 30 min; for Enhancement of action factor: ED50 tail flick rat / ED50 Chung rat; for analgesic potency in the neuropathic pain model relative to the acute pain model (factor): neuropathic pain models (Chung, Bennett) vs tail flick
Sprague-Dawley rats [2] = conditions: 25% intensity of thermal radiation
rats = experiment: Place preference (place conditioning) in rats; format: in vivo, rat

O=C1NCN(c2ccccc2)C12CCN(C1Cc3cccc4cccc1c34)CC2 (centres unmarked)
Ki (human μ-opiate receptor): 23 nM

CN1CC[C@]23c4c5ccc(O)c4O[C@H]2C(=O)CC[C@H]3[C@H]1C5
ED50 chronic (Sprague-Dawley rats [1]; Chung model): 220 µg/kg

CN(C)C1(c2ccccc2)CCC2(CC1)OCCc1c2[nH]c2ccc(F)cc12 (centres unmarked)
analgesic action after antagonization with naloxone or B11 (Sprague-Dawley rats [1]; Chung model): remains in place even at a very high dosage of B11 | maximum, purely antiallodynic action (Sprague-Dawley rats [1]; Chung model, ipsilateral paw, 1 μg/kg i.v.): 56 % MPE | ED50 chronic (Sprague-Dawley rats [1]; Chung model): 1 µg/kg | Enhancement of action factor (Sprague-Dawley rats [1]): 7 x | antiallodynic efficacy relative to fentanyl (factor) (Sprague-Dawley rats [1]; neuropathic animals): approx. 10 | analgesic potency in the neuropathic pain model relative to the acute pain model (factor) (Sprague-Dawley rats [1]): approximately ten times more potent against neuropathic pain than against acute pain

CNC1(c2cccs2)CCC2(CC1)OCCc1c2[nH]c2ccc(F)cc12 (centres unmarked)
analgesic action after antagonization with naloxone or B11 (Sprague-Dawley rats [1]; Chung model): analgesic action of the non-antagonized component in each case remains in place | ED50 chronic (Sprague-Dawley rats [1]; Chung model): 8 µg/kg | Enhancement of action factor (Sprague-Dawley rats [1]): 8 x

CNC1(c2ccccc2)CCC2(CC1)OCCc1c2[nH]c2ccc(OC)cc12 (centres unmarked)
ED50 chronic (Sprague-Dawley rats [1]; Chung model): 363 µg/kg | Enhancement of action factor (Sprague-Dawley rats [1]): 0.9 x | analgesic potency in the neuropathic pain model relative to the acute pain model (factor) (Sprague-Dawley rats [1]): no longer any more active in the neuropathic model than it is in the acute pain model

CN(C)C1(c2ccsc2)CCC2(CC1)OCCc1c2[nH]c2ccc(F)cc12 (centres unmarked)
Ki (human μ-opiate receptor): 1.3 nM

CN(C)C1(c2ccsc2)CCC2(CC1)OCCc1c2[nH]c2ccccc12 (centres unmarked)
Ki (human μ-opiate receptor): 0.1 nM

CNC1(c2ccccc2)CCC2(CC1)OCCc1c2[nH]c2ccc(F)cc12 (centres unmarked)
analgesic action after antagonization with naloxone or B11 (Sprague-Dawley rats [1]; Chung model): analgesic action of the non-antagonized component in each case remains in place | ED50 chronic (Sprague-Dawley rats [1]; Chung model): 9 µg/kg | Enhancement of action factor (Sprague-Dawley rats [1]): 12 x | analgesic potency in the neuropathic pain model relative to the acute pain model (factor) (Sprague-Dawley rats [1]): 10

CNC1(c2ccccc2)CCC2(CC1)OCCc1c2[nH]c2ccccc12 (centres unmarked)
Ki (human μ-opiate receptor): 0.4 nM

CNC1(c2cccs2)CCC2(CC1)OCCc1c2[nH]c2ccccc12 (centres unmarked)
Ki (human μ-opiate receptor): 0.5 nM | transient (opioid-induced) hyperalgesia after acute administration (Sprague-Dawley rats [2]): no transient hyperalgesia was observed

CN(C)C1(c2cccs2)CCC2(CC1)OCCc1c2[nH]c2ccccc12 (centres unmarked)
Ki (human μ-opiate receptor): 0.3 nM | ED50 chronic (Sprague-Dawley rats [1]; Chung model): 1 µg/kg | Enhancement of action factor (Sprague-Dawley rats [1]): 2 x | threshold dose for inducing place preference relative to analgesically semimaximal active dose (rats): in the range of or above the analgesically semimaximal active dose | transient (opioid-induced) hyperalgesia after acute administration (Sprague-Dawley rats [2]): no transient hyperalgesia was observed

CN(C)[C@]1(c2ccccc2)CC[C@]2(CC1)OCCc1c3ccccc3[nH]c12
ED50 chronic (Sprague-Dawley rats [1]; Chung model): 0.8 µg/kg | Enhancement of action factor (Sprague-Dawley rats [1]): 2.5 x

CN(C)C1(c2cccs2)CCC2(CC1)OCCc1c2[nH]c2ccc(F)cc12 (centres unmarked)
Ki (human μ-opiate receptor): 1 nM | analgesic action after antagonization with naloxone or B11 (Sprague-Dawley rats [1]; Chung model): analgesic action of the non-antagonized component in each case remains in place | ED50 chronic (Sprague-Dawley rats [1]; Chung model): 4 µg/kg | Enhancement of action factor (Sprague-Dawley rats [1]): 2.5 x | threshold dose for inducing place preference relative to analgesically semimaximal active dose (rats): in the range of or above the analgesically semimaximal active dose
